Values of other authors as cited in patent US20160220689A1, “MACROMOLECULES OF DENDRIMER-PLATINUM CONJUGATES” (priority 2013, published 2016).

Settings: patients receiving the drug; cited from earlier work

Question: Which “patients developing peripheral neurotoxicity” value does the source give for oxaliplatin [reference compound] here?
Answer: 85-95%
